Data taken from patent publication US20060093562A1 (priority 2004, published 2006).

Assay: Solubility of SDS in glycerin/water solutions of potassium bicarbonate, potassium carbonate or sodium carbonate
Format: physicochemical
Conditions: 134.06 g glycerin, 46.54 g water, 9.00 g potassium carbonate, room temperature, 100° F., and 122° F.

Appearance of solution after SDS addition: turbid
SMILES: CCCCCCCCCCOS(=O)(=O)[O-].[Na+] [SDS, Sodium Decyl Sulfate]
